Paper PMC5028261 (Neurochemistry international, 2016)

Legend:
[1] = Accelerated stability of solid compound by HPLC; assay type: physicochemical; conditions: 20°C, extrapolation using the Arrhenius equation
[2] = over 72 hours, HPLC
[3] = octanol/water, room temperature
[4] = test system: RGCs and retinal endothelial cells; conditions: ref Schlieve et al., 2006; cited from earlier work

bis(3-propionic acid methyl ester) phenylphosphine-borane complex [PB1]
calculated half-life [1]: 2 years
solubility in water [2]: 237.8 µM
log Poct/wat [3]: 0.6
no toxicity up to (concentration) [4]: 1 mM
